Experimental findings from patent US8609723B2, “Long acting curcumin derivative, preparation method and pharmaceutical use thereof” (Beijing Dingguochangsheng Biotech., Co., Ltd., priority 2008, dated 2013) are described below.

The nature of this series: Detection of curcumin in plasma of mice (HPLC-MS/MS). The series is classed as in vivo. Conditions: subcutaneous injection 100 mg/kg, single administration. As to the method:
Administration Pathway: Mice were administered by subcutaneous injection, with a dosage of 100 mg/kg body weight. Blood samples were collected from eye at 5 min, 10 min, 30 min, 45 min, 1 h, 1.5 h, 2 h, 6 h and Day 2, 3, 4, 5, 6, 7 after administration, respectively, with 6 mice/sampling point. The blood samples were placed into blood collection tubes which had been coated with heparin, and then centrifuged. Subsequently, 0.2 ml supernatant was collected, extracted twice with ethyl acetate, frozen and dried out in vacuum, dissolved in methanol to make a final volume of 0.2 ml, and used for HPLC assay.
Approximately 0.5 mg curcumin was added to a certain amount of peanut oil, to resulting in a final concentration of 0.5 mg/ml. Different concentrations of curcumin was added to a blank plasma sample precisely. The standard samples were prepared in accordance with the plasma samples. […]
Selective multi-reaction monitoring, ion reaction for quantitative analysis and the corresponding Declustering Potential (DP), Collision Energy (CE), Entrance Potential (EP) are m/z 367.1˜216.9, DP: −50 V, CE: −15 V, EP: −6 V, respectively.
The content of curcumin in the plasma was measured by HPLC-MS/MS. […] By then, curcumin can still be detected in plasma of mice.

On to “curcumin decanoate [long acting curcumin]”, for which the “content value of curcumin in the plasma reached peak” value is 1 days and the “curcumin can still be detected in plasma (plateau period until)” value was no less than 7 days.
